From PMC10404699, “SAMHD1 impairs type I interferon induction through the MAVS, IKKε, and IRF7 signaling axis during viral infection” (The Journal of Biological Chemistry, 2023)

Biological target: T1, purified c-myc/DDK-tagged IKKε (inhibitor of nuclear factor kappa-B kinase epsilon) (human, UniProt Q14164 1-716)
T1 construct: also called recombinant IKKε; source: bought: Origene (TP312481); purified from HEK293T cells
T1 sequence (looked up): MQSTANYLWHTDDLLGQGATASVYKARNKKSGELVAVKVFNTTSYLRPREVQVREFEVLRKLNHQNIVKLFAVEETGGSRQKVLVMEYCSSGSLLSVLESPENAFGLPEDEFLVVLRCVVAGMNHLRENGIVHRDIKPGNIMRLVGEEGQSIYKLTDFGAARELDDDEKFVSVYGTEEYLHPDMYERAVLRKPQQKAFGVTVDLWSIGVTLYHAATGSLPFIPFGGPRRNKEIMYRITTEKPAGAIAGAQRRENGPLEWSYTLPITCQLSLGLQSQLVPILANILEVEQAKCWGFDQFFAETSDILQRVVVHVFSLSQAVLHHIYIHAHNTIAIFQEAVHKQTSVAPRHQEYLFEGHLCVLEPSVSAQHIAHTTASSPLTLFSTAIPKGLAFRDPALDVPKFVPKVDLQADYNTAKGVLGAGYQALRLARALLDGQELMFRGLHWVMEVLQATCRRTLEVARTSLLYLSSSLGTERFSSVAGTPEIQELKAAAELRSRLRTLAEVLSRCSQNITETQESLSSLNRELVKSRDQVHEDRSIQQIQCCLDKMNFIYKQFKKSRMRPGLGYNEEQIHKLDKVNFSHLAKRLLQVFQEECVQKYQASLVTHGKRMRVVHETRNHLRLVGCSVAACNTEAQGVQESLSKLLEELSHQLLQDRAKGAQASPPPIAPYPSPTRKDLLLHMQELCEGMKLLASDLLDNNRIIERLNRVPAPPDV
Test: pull-down; in vitro pull-down of purified recombinant proteins with an anti-SAMHD1 antibody, analyzed by immunoblot; performed as described in ref. 16
Conditions: both partners purified

B1: recombinant N-terminal His-tagged full-length SAMHD1 (natural protein, human, UniProt Q9Y3Z3 1-626, looked up)
chain: MQRADSEQPSKRPRCDDSPRTPSNTPSAEADWSPGLELHPDYKTWGPEQVCSFLRRGGFEEPVLLKNIRENEITGALLPCLDESRFENLGVSSLGERKKLLSYIQRLVQIHVDTMKVINDPIHGHIELHPLLVRIIDTPQFQRLRYIKQLGGGYYVFPGASHNRFEHSLGVGYLAGCLVHALGEKQPELQISERDVLCVQIAGLCHDLGHGPFSHMFDGRFIPLARPEVKWTHEQGSVMMFEHLINSNGIKPVMEQYGLIPEEDICFIKEQIVGPLESPVEDSLWPYKGRPENKSFLYEIVSNKRNGIDVDKWDYFARDCHHLGIQNNFDYKRFIKFARVCEVDNELRICARDKEVGNLYDMFHTRNSLHRRAYQHKVGNIIDTMITDAFLKADDYIEITGAGGKKYRISTAIDDMEAYTKLTDNIFLEILYSTDPKLKDAREILKQIEYRNLFKYVGETQPTGQIKIKREDYESLPKEVASAKPKVLLDVKLKAEDFIVDVINMDYGMQEKNPIDHVSFYCKTAPNRAIRITKNQVSQLLPEKFAEQLIRVYCKKVDRKSLYAARQYFVQWCADRNFTKPQDGDVIAPLITPQKKEWNDSTSVQNPTRLREASKSRVQLFKDDPM
notes: also called recombinant FL SAMHD1; recombinant SAMHD1
- binding result: binds
